{"source": "patent US20260207554A1", "about": "(priority 2022, published 2026)", "assay": "dynamic vapor sorption (DVS)"}
{"substance": "(1r,4r)-6′-fluoro-N,N-dimethyl-4-phenyl-4′,9′-dihydro-3′H-spiro[cyclohexane-1,1′-pyrano[3,4,b]indol]-4-amine", "values": [{"measurement": "relative humidity of transformation ansolvate→hemi-hydrate", "setting": "DVS second cycle", "result": "> 70", "unit": "% r. h."}, {"measurement": "relative humidity of transformation hemi-hydrate→ansolvate", "setting": "DVS second cycle", "result": "< 38", "unit": "% r. h."}, {"measurement": "hygroscopicity class", "setting": "DVS, two cycles", "result": "hygroscopic (hygroscopic (h): increase of the mass is less than 15% and equal or greater than 2%)"}, {"measurement": "Δm: change in mass", "setting": "at 85% r. h.", "result": "3-4%"}]}
